# In patent US11730819B2, “Peptide derivatives having novel linkage structures” (priority 2016, dated 2023):
# Where “and” joins values, the source holds several entries; their conditions need not be identical. Identical values can stand only once.
# Tests used:
# MT1-MMP hemopexin domain = target: T1, MT1-MMP hemopexin domain (Homo sapiens, UniProt P50281); test: Fluorescence polarisation competition binding assay; details: Binding Affinity (Ki in nM) Human ki, bicycle peptide-drug conjugates, two values given
# T1 construct: residues Cys319-Gly511 from the human gene; His6 (N); made in house; host or cells: HEK293 cells (transient, pEXPR-IBA42 vector)
# Text: The MT1-MMP hemopexin-like repeats (also known as the MT1-MMP hemopexin domain), residues Cys319-Gly511 from the human gene, were transiently expressed in HEK293 cells as secreted N-terminally His6-tagged soluble protein, using the pEXPR-IBA42 (IBA) expression vector. Following expression, the protein was purified by Nickel-NTA affinity chromatography followed by gel filtration, and purity was checked by SDS-PAGE. Batch to batch variability was also monitored by fluorescence thermal shift experiments in the presence/absence of a hemopexin domain binding bicycle.
# Binding affinity was measured using competition assays using Fluorescence Polarisation (anisotropy). […]
# Here, a pre-formed complex of PEX with the fluorescent PEX-binding tracer is titrated with free, non-fluoresceinated bicyclic peptide. […] Dissociation of the complex can be measured quantitatively, and the Kd of the competitor (titrant) to the target protein determined. The advantage of the competition method is that the affinities of non-fluoresceinated bicyclic peptides can be determined accurately and rapidly.
# Subsequently, the non-fluorescent competitor bicyclic peptide (usually just the bicycle core sequence) is titrated, such that it displaces the fluorescent tracer from the target protein. The displacement of the tracer is measured and associated with a drop in fluorescence polarisation. […]
# rat/mouse MT1-MMP = rat/mouse MT1-MMP (Mus musculus, UniProt P53690); test: Binding affinity to rat/mouse MT1-MMP, measured as previously described; details: Binding Affinity (Ki in nM) rat/mouse ki, bicycle peptide-drug conjugates, two values given
# Protocol: Binding affinity was measured using competition assays using Fluorescence Polarisation (anisotropy).
# Due to their high affinities to the MT1-MMP Hemopexin domain (PEX), the fluoresceinated derivatives herein can be used for competition experiments (using FP for detection). Here, a pre-formed complex of PEX with the fluorescent PEX-binding tracer is titrated with free, non-fluoresceinated bicyclic peptide. Since all 17-69-based peptides are expected to bind at the same site, the titrant will displace the fluorescent tracer from PEX. Dissociation of the complex can be measured quantitatively, and the Kd of the competitor (titrant) to the target protein determined. The advantage of the competition method is that the affinities of non-fluoresceinated bicyclic peptides can be determined accurately and rapidly. […]
# The raw data is fit to the analytical solution of the cubic equation that describes the equilibria between fluorescent tracer, titrant, and binding protein. The fit requires the value of the affinity of fluorescent tracer to the target protein, which can be determined separately by direct binding FP experiments (see previous section). […]
# The in vitro binding affinities of the bicycle peptide-drug conjugates prepared above were measured for MT1-MMP as previously described herein.
smiles,measurement,setting,value
CC[C@H](C)[C@@H]([C@@H](CC(=O)N1CCC[C@H]1[C@H](OC)[C@@H](C)C(=O)N[C@H](C)[C@@H](O)c1ccccc1)OC)N(C)C(=O)[C@@H](NC(=O)[C@H](C(C)C)N(C)C(=O)OCc1ccc(NC(=O)[C@H](CCCNC(N)=O)NC(=O)[C@@H](NC(=O)Cn2cc(CCC(=O)NCCC(=O)N(C)CC(=O)N(C)CC(=O)N(C)CC(=O)N(C)CC(=O)N(C)CC(=O)N(C)CC(=O)N(C)CC(=O)N(C)CC(=O)N(C)CC(=O)N(C)CC(=O)N[C@@H](C)C(=O)N[C@H]3CN(C)Cc4cc5cc(c4)CN(C)C[C@@H](C(N)=O)NC(=O)[C@H](C(C)(C)C)NC(=O)[C@H](CC(=O)O)NC(=O)[C@H](Cc4ccc(O)cc4)NC(=O)[C@H](Cc4ccccc4)NC(=O)[C@H](CC(=O)O)NC(=O)[C@H](CCC(=O)O)NC(=O)[C@H](CSC5)NC(=O)[C@@H](C)NC(=O)[C@H](Cc4cccc5ccccc45)NC(=O)[C@H](CCC(=O)O)NC(=O)[C@H](CC(N)=O)NC(=O)[C@@H](C)NC3=O)nn2)C(C)C)cc1)C(C)C [BT17BDC-61],Ki,MT1-MMP hemopexin domain,3.2 nM and 2.9 nM
same,Ki,rat/mouse MT1-MMP,1.8 nM and 1.6 nM
